Assay results as given in patent publication CN107488231A (UNIV SICHUAN, dated 2017).

The chains behind the UniProt entries cited, without tags or fusion partners. A line that says so, or that is headed by a name, gives the form on record, which may keep a tag or linker. Residues count along the entry.
UniProt P13591, 20-858: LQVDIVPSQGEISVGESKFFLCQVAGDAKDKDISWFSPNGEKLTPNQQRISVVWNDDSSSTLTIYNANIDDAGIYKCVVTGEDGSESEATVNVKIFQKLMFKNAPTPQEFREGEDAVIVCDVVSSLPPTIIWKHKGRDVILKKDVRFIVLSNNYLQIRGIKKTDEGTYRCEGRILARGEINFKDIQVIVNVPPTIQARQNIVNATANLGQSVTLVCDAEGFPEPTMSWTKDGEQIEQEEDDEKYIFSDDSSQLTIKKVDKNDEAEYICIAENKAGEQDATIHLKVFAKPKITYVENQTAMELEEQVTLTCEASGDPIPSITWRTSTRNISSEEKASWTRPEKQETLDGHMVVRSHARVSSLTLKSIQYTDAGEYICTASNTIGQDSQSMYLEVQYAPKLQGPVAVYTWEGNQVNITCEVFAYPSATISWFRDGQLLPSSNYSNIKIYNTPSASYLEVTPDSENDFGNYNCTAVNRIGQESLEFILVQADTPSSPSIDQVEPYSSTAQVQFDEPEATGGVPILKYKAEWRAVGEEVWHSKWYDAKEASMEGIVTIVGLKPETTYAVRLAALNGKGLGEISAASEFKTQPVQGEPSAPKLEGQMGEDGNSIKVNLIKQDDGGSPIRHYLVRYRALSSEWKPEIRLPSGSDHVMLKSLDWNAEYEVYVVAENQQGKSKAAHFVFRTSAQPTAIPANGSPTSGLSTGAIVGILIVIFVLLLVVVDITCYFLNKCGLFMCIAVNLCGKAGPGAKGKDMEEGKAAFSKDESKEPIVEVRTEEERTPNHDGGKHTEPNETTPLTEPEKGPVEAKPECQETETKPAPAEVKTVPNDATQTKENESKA
UniProt P13591, other isoform, or with tags, fused parts or gaps limits assumed: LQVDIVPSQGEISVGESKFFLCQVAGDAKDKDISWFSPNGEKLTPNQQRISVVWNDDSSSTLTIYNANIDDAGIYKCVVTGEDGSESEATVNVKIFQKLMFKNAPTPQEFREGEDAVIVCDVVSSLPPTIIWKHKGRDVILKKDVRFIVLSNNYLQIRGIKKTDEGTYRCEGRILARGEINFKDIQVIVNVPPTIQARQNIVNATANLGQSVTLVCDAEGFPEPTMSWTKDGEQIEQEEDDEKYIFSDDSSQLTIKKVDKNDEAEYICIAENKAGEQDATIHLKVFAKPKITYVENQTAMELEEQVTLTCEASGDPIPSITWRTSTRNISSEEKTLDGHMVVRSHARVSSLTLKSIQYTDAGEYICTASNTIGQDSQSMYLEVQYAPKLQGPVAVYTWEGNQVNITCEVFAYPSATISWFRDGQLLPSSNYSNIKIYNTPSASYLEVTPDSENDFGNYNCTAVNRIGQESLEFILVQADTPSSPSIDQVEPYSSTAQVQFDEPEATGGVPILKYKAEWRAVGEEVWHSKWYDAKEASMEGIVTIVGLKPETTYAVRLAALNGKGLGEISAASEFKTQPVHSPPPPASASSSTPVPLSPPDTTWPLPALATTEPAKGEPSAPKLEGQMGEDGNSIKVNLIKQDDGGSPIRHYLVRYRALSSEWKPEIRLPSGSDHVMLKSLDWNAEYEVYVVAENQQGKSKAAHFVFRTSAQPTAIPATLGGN

Columns and labels:
[1] = target: CD56 of CD56-positive human small cell lung cancer cell lines (NCI-H526, NCI-H524, NCI-H69, NCI-H446) (human, UniProt P13591 20-858); assay: cell-based or functional assay
[2] = target: T1, Recombinant Human NCAM-1/CD56 120 isoform (human, UniProt P13591-3 20-741, limits assumed); assay: Biacore SPR, antigen amine-coupled to CM5 chip, antibody as analyte, 1:1 model
T1 construct: the result sentence of the same paragraph calls the antigen CD56ECD

B1: 抗CD56抗体Promiximab(普偌米昔) (antibody, V domains shown)
VH: EIQLQQSGPELVKPGASVKVSCKASGYAFTNYNMYWMKQSHGKSLEWIGYIDPYNGGTRYNQKFKGKATLTVDKSSSTAYMHLNSLTSEDSAVYYCAREDSTGYWGQGTTLTVSS
VL: DVLLTQTPLSLPVSLGDQASISCRSSQNILHSNGNTYFEWYLQKPGQSPKLLIYKVSNRFSGVPDRFSGSGSGTDFTLKISRVEAEDLGVYYCFQGSHVPFTFGGGTKLEIKR
B1 was tested, and the “IC50, CCK-8抗增殖实验 (NCI-H69)” value [1] was 969 nM, the “IC50, CCK-8抗增殖实验 (NCI-H526)” value [1] was 792 nM and the Kd [2] was under 0.00078 nM. For the same binder, the koff [2] was under 1e-07 s⁻¹ and the kon [2] was 127000 M⁻¹ s⁻¹.
